pIC50: −log10 of the molar value. Bounds are passed on as bounds.

Chains of the proteins cited; added tags and fusions are not shown. Residues count along the entry.
UniProt Q9NZQ7, 19-238 limits assumed: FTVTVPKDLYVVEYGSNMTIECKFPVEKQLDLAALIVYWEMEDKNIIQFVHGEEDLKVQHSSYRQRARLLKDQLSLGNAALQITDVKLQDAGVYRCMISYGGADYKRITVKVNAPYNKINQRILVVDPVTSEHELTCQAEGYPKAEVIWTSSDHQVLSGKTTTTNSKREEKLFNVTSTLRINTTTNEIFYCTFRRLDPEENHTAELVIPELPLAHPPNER

This experiment deals with hPD1/hPD-L1 interaction (Homo sapiens (Human), UniProt Q9NZQ7). Kind of experiment: HTRF assay of PD-1/PD-L1 interaction. Format: binding. The note with it: Table 1. In general terms: TR-FRET usually uses a lanthanide donor and a delayed reading to cut background.
As usually defined, the pIC50 is the IC50 on a negative log10 scale, so that one unit is a factor of ten. In the case of `CC(=O)NCCNc1nc(OCc2cccc(C#N)c2)nc(OCc2cccc(-c3ccccc3)c2C)n1`, the negative logarithm of the IC50 (pIC50) is under 5.30.
In the case of `CC(=O)NCCNc1nc(C)nc(OCc2cccc(-c3ccccc3)c2C)n1` it was under 5.30.
In the case of `Cc1c(COc2nc(N[C@@H](Cc3c[nH]cn3)C(=O)O)nc(OCc3cccc(C#N)c3)n2)cccc1-c1ccccc1` it was under 5.30; in that of `COC(=O)[C@H](Cc1c[nH]cn1)Nc1nc(OCc2cccc(C#N)c2)nc(OCc2cccc(-c3ccccc3)c2C)n1`, under 5.30.

Source of the values: patent US20240327387A1, “TRIAZINE DERIVATIVES FOR THE TREATMENT OF TUMOURS AND NEURODEGENERATIVE DISORDERS” (UNIVERSITA' DEGLI STUDI DI MILANO, priority 2021, published 2024).
